Reference: patent US7517517B2 (Janssen Pharmaceutica N.V., priority 2002, dated 2009)

The chains behind the UniProt entries cited, without tags or fusion partners. Residues count along the entry.
UniProt P23385, 19-1199: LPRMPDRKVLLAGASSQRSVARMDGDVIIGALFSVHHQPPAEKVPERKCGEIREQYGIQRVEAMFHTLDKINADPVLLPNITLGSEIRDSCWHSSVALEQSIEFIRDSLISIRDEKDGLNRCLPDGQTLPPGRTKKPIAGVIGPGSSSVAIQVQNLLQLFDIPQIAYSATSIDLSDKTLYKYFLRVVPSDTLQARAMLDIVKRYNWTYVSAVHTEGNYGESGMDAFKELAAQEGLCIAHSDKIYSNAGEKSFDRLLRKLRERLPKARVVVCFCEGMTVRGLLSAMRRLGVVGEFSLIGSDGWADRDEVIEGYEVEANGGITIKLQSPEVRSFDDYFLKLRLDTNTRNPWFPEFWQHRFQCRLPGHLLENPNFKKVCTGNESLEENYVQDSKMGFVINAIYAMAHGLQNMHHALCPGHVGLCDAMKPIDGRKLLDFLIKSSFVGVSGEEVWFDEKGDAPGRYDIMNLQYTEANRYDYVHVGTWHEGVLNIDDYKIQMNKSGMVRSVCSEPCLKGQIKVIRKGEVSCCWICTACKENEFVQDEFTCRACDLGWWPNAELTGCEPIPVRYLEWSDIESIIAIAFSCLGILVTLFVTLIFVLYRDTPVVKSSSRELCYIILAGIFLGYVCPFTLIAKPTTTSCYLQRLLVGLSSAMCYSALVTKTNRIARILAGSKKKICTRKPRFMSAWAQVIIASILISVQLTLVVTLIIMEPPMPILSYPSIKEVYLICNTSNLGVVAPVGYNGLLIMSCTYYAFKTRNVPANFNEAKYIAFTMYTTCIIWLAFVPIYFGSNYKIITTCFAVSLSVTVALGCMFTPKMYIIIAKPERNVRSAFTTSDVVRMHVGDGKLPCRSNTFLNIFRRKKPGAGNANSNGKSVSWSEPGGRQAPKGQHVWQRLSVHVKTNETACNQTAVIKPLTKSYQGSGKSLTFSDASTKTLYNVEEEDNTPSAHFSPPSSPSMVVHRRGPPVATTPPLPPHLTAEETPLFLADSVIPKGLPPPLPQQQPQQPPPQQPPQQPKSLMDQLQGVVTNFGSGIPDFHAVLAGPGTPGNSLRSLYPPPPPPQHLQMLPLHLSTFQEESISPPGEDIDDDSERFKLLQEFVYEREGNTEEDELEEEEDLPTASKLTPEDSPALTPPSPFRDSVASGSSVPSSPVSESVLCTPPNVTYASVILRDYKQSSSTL

Target: T1, rat mGlu1a receptor (Rattus norvegicus, UniProt P23385)
T1 construct: host or cells: CHO-dhfr- cells
Assay: [3H]Compound A binding to rat mGlu1a receptor CHO-dhfr− membranes (saturation, kinetics, inhibition)
Details: 30 min incubation, n=3

- Bmax: 6512±1501 fmoles/mg of protein
Structure (SMILES): [3H]c1ccc(CC(=O)c2ccc3nc4c(cc3c2)CCCO4)cc1 [[^3H]Compound A]
